From ChEMBL document CHEMBL4507308

Chains of the proteins cited; added tags and fusions are not shown. Lines headed by an entry give the natural chain unless they say otherwise; changes in a name come on top.
UniProt P41143, whole entry, looked up: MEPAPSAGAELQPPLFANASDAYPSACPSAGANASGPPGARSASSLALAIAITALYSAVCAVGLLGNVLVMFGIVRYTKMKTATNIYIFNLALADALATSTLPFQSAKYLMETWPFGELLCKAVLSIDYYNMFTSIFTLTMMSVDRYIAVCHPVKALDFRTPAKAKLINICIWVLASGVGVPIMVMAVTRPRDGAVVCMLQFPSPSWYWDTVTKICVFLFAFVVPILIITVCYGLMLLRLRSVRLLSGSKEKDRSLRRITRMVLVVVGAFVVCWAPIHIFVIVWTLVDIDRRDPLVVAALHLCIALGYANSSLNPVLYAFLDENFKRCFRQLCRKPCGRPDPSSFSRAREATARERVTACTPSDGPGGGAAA
UniProt Q99720, whole entry, looked up: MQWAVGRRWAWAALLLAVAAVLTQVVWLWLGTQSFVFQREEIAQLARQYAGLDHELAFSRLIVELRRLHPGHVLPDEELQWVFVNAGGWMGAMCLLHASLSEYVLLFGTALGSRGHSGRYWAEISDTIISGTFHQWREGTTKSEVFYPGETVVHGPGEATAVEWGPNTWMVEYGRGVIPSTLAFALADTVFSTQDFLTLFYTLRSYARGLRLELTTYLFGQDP
UniProt P41145: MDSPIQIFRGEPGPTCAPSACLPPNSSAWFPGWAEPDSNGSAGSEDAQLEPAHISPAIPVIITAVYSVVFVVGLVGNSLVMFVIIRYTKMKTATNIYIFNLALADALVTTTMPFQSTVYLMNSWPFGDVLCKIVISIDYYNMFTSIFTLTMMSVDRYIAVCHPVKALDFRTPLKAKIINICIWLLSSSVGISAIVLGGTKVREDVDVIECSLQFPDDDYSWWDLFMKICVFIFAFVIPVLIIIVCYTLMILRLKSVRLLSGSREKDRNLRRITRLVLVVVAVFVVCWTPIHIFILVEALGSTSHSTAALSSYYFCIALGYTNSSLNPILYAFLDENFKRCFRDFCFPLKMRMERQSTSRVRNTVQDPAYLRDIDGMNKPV
UniProt P35372, whole entry, looked up: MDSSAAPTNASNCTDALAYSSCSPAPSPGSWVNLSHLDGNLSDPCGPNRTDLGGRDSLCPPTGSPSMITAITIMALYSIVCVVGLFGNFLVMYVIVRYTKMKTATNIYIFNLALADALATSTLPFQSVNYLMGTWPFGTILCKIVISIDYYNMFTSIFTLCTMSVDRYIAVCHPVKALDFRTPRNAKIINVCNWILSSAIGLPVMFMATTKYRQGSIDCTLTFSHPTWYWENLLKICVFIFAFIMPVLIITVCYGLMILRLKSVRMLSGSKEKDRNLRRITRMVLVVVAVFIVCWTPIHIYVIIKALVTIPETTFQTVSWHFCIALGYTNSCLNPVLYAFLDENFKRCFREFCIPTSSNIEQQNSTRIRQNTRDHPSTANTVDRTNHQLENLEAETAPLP

What was measured:
Details in all cases: Compound concentration 10.0 uM
[1] = molecular target: Delta-type opioid receptor (Homo sapiens) (UniProt P41143); assay: GPCRScan assay: inhibition of DOR; set-up: radioligand conc. used [nm] 1.0 – 2.0, parental cells stable HEK
[2] = molecular target: Sigma non-opioid intracellular receptor 1 (Homo sapiens) (UniProt Q99720); assay: GPCRScan assay: inhibition of Sigma 1; set-up: radioligand conc. used [nm] 4.0 – 5.0, parental cells HEKT
[3] = molecular target: Kappa-type opioid receptor (Homo sapiens) (UniProt P41145); assay: GPCRScan assay: inhibition of KOR
[4] = molecular target: Mu-type opioid receptor (Homo sapiens) (UniProt P35372); assay: GPCRScan assay: inhibition of MOR

Measured: inhibition

Cc1cnc(-c2cc(Cl)ccc2F)cc1-n1c(=O)n(CC(N)=O)c2cnccc21
inactive: [1] -4.16% | [2] 50% | [3] -0.979% | [4] 13.7%

Cc1cnc(-c2cc(Cl)ccc2F)cc1-n1c(=O)n(CC(N)=O)c2ccccc21
inactive: [1] 17.5% | [2] 13.2% | [3] 13.5% | [4] 47.4%
